Data published in patent publication US10287301B2 (Achillion Pharmaceuticals, Inc., priority 2015, dated 2019).

Chains of the proteins cited; added tags and fusions are not shown. Residues count along the entry.
UniProt P00746, 26-253: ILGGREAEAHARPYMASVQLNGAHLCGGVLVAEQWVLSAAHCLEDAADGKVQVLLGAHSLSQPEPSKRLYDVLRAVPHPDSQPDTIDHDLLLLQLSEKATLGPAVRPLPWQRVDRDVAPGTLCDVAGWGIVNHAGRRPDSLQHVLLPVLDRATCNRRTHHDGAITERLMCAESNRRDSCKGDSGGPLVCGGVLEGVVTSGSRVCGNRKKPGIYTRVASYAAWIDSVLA

Each molecule was assayed against Human Factor D (Homo sapiens (Human), UniProt P00746) (assay: Human Factor D Assay). Settings: not given.
Type: biochemical
Method: Human Factor D (purified from human serum, Complement Technology, Inc.) at 80 nM final concentration was incubated with test compound at various concentrations for 5 minutes at room temperature in 50 mM Tris, 1M NaCl, pH 7.5. A synthetic substrate Z-L-Lys-SBzl and DTNB (Ellman's reagent) are added to final concentrations of 100 μM each. […] IC50 values are calculated by nonlinear regression of complement Factor D reaction rates as a function of test compound concentration.

Which IC50 does the source give for `NC(=O)c1nn(CC(=O)N2C[C@H](F)C[C@H]2C(=O)Nc2nc(-c3ccccc3Cl)ns2)c2ccc(-c3ccnnc3)cc12` [Compound 114, 1-(2-((2S,4R)-2-(3-(2-chlorophenyl)-1,2,4-thiadiazol-5-ylcarbamoyl)-4-fluoropyrrolidin-1-yl)-2-oxoethyl)-5-(pyridazin-4-yl)-1H-indazole-3-carboxamide] here?
The IC50 was 1 to 10 µM.

`COc1ccc(-c2ccc3c(c2)c(C(C)=O)nn3CC(=O)N2CCC[C@H]2C(=O)Nc2cccc(C)n2)cn1` [Compound 543, (S)-1-(2-(3-Acetyl-5-(6-methoxypyridin-3-yl)-1H-indazol-1-yl)acetyl)-N-(6-methylpyridin-2-yl)pyrrolidine-2-carboxamide] was tested. Which IC50 did it give?
The IC50 was 1 to 10 µM.

For `CC(=O)c1nn(CC(=O)N2C[C@H](F)C[C@H]2C(=O)NCC2CCN(CC(F)(F)F)C2)c2ccc(-c3cnc(C)nc3)cc12` (stereo partly drawn) [Compound 550, (2S,4R)-1-(2-(3-Acetyl-5-(2-methylpyrimidin-5-yl)-1H-indazol-1-yl)acetyl)-4-fluoro-N-((1-(2,2,2-trifluoroethyl)pyrrolidin-3-yl)methyl)pyrrolidine-2-carboxamide], which IC50 is on record?
Its IC50 is 1 to 10 µM.

Which IC50 does the source give for `CC(=O)c1nn(CC(=O)N2C3CC3(CN3CCCC3)C[C@H]2C(=O)Nc2nc(Br)ccc2C)c2ccc(-c3cnc(C)nc3)cc12` (stereo partly drawn) [Compound 753, (3S)-2-(2-(3-Acetyl-5-(2-methylpyrimidin-5-yl)-1H-indazol-1-yl)acetyl)-N-(6-bromo-3-methylpyridin-2-yl)-5-(pyrrolidin-1-ylmethyl)-2-azabicyclo[3.1.0]hexane-3-carboxamide] here?
Its IC50 is 1 to 10 µM.

How did the IC50 turn out when `Cc1ccc(-c2ccc3c(c2)c(C(N)=O)cn3CC(=O)N2[C@@H]3CC[C@@H](C3)[C@H]2C(=O)Nc2cccc(C)n2)cn1` [Compound 490, 1-(2-((1R,3S,4S)-3-(6-Methylpyridin-2-ylcarbamoyl)-2-azabicyclo[2.2.1]heptan-2-yl)-2-oxoethyl)-5-(6-methylpyridin-3-yl)-1H-indole-3-carboxamide] was run?
Its IC50 is greater than 10 µM.

With `CC(=O)c1nn(CC(=O)N2C3CC3(CN3CCOCC3)C[C@H]2C(=O)Nc2nc(Br)ccc2C)c2ccc(-c3cnc(C)nc3)cc12` (stereo partly drawn) [Compound 751, (3S)-2-(2-(3-acetyl-5-(2-methylpyrimidin-5-yl)-1H-indazol-1-yl)acetyl)-N-(6-bromo-3-methylpyridin-2-yl)-5-(morpholinomethyl)-2-azabicyclo[3.1.0] hexane-3-carboxamide] as the molecule, how does the IC50 read?
Its IC50 is 1 to 10 µM.

How did the IC50 turn out when `CCCCCOc1cccc(NC(=O)[C@@H]2C[C@@H](F)CN2C(=O)Cn2nc(C(C)=O)c3cc(-c4cnc(C)nc4)ccc32)n1` [Compound 519, (2S,4R)-1-(2-(3-Acetyl-5-(2-methylpyrimidin-5-yl)-1H-indazol-1-yl)acetyl)-4-fluoro-N-(6-(pentyloxy)pyridin-2-yl)pyrrolidine-2-carboxamide] was run?
Its IC50 is 1 to 10 µM.

For `CC(=O)c1nn(CC(=O)N2CCC[C@H]2C(=O)Nc2cccc(C)n2)c2ccc(-c3ccc(F)nc3)cc12` [Compound 545, (S)-1-(2-(3-Acetyl-5-(6-fluoropyridin-3-yl)-1H-indazol-1-yl)acetyl)-N-(6-methylpyridin-2-yl)pyrrolidine-2-carboxamide], which IC50 is on record?
The IC50 was 1 to 10 µM.

How did the IC50 turn out when `CC(=O)c1nn(CC(=O)N2C[C@H](F)C[C@H]2C(=O)NC2CCN(CC(F)(F)F)C2)c2ccc(-c3cnc(C)nc3)cc12` (stereo partly drawn) [Compound 610, (2S, 4R)-1-(2-(3-Acetyl-5-(2-methylpyrimidin-5-yl)-1H-indazol-1-yl)acetyl)-4-fluoro-N-(1-(2,2,2-trifluoroethyl)pyrrolidin-3-yl) pyrrolidine-2-carboxamide] was run?
Its IC50 is 1 to 10 µM.

`CC(=O)c1cn(CC(=O)N2C[C@H](F)C[C@H]2C(=O)Nc2nn(C)c3c2CC(C)C(=O)N3)c2ccc(-c3ccnnc3)cc12` (stereo partly drawn) [Compound 171, (2S,4R)-1-(2-(3-acetyl-5-(pyridazin-4-yl)-1H-indol-1-yl)acetyl)-N-(1,5-dimethyl-6-oxo-4,5,6,7-tetrahydro-1H-pyrazolo[3,4-b]pyridin-3-yl)-4-fluoropyrrolidine-2-carboxamide] was tested. Which IC50 did it give?
Its IC50 is 1 to 10 µM.

Which IC50 does the source give for `NC(=O)c1nn(CC(=O)N2C[C@H](F)C[C@H]2C(=O)Nc2cncc(Cl)c2)c2ccc(-c3ccnnc3)cc12` [Compound 67, 1-(2-((2S,4R)-2-(5-chloropyridin-3-ylcarbamoyl)-4-fluoropyrrolidin-1-yl)-2-oxoethyl)-5-(pyridazin-4-yl)-1H-indazole-3-carboxamide] here?
The IC50 was 1 to 10 µM.

Which IC50 does the source give for `CC(=O)c1nn(CC(=O)N2C[C@H](F)C[C@H]2C(=O)Nc2cccc(C(=O)N(C)C)n2)c2ccc(-c3cnc(C)nc3)cc12` [Compound 618, 6-((2S,4R)-1-(2-(3-Acetyl-5-(2-methylpyrimidin-5-yl)-1H-indazol-1-yl)acetyl)-4-fluoropyrrolidine-2-carboxamido)-N,N-dimethylpicolinamide] here?
The IC50 was 1 to 10 µM.

For `CC(=O)c1nn(CC(=O)N2CCC[C@H]2C(=O)Nc2cccc(C)n2)c2ccc(-c3cccc(C#N)c3)cc12` [Compound 544, (S)-1-(2-(3-Acetyl-5-(3-cyanophenyl)-1H-indazol-1-yl)acetyl)-N-(6-methylpyridin-2-yl)pyrrolidine-2-carboxamide], which IC50 is on record?
Its IC50 is 1 to 10 µM.

With `CC(=O)c1nn(CC(=O)N2C[C@@](F)(CN(C)C)C[C@H]2C(=O)Nc2nc(Br)ccc2C2CC2)c2ccc(-c3cnc(C)nc3)cc12` [Compound 733, (2S,4S)-1-(2-(3-Acetyl-5-(2-methylpyrimidin-5-yl)-1H-indazol-1-yl)acetyl)-N-(6-bromo-3-cyclopropylpyridin-2-yl)-4-((dimethylamino)methyl)-4-fluoropyrrolidine-2-carboxamide] as the molecule, how does the IC50 read?
Its IC50 is 1 to 10 µM.

With `CNC(=O)c1cccc(NC(=O)[C@@H]2C[C@@H](F)CN2C(=O)Cn2nc(C(C)=O)c3cc(-c4cnc(C)nc4)ccc32)n1` [Compound 619, 6-((2S,4R)-1-(2-(3-Acetyl-5-(2-methylpyrimidin-5-yl)-1H-indazol-1-yl)acetyl)-4-fluoropyrrolidine-2-carboxamido)-N-methylpicolinamide] as the molecule, how does the IC50 read?
Its IC50 is 1 to 10 µM.

For `CC(=O)c1nn([C@H](F)C(=O)N2C[C@H](F)C[C@H]2C(=O)Nc2cccc(Br)n2)c2ccc(-c3cnc(C)nc3)cc12` [Compound 411, (2S,4R)-1-((R)-2-(3-acetyl-5-(2-methylpyrimidin-5-yl)-1H-indazol-1-yl)-2-fluoroacetyl)-N-(6-bromopyridin-2-yl)-4-fluoropyrrolidine-2-carboxamide], which IC50 is on record?
The IC50 was 1 to 10 µM.

For `CC(=O)c1cn(CC(=O)N2C[C@H](F)C[C@H]2C(=O)NC2CCN(c3ccn(C)n3)C2=O)c2ccc(-c3ccnnc3)cc12` (stereo partly drawn) [Compound 167, (2S,4R)-1-(2-(3-acetyl-5-(pyridazin-4-yl)-1H-indol-1-yl)acetyl)-4-fluoro-N-(1-(1-methyl-1H-pyrazol-3-yl)-2-oxopyrrolidin-3-yl)pyrrolidine-2-carboxamide], which IC50 is on record?
Its IC50 is 1 to 10 µM.

For `CC(=O)c1nn(CC(=O)N2CCC[C@H]2C(=O)Nc2cccc(C)n2)c2ccc(-c3cccnc3)cc12` [Compound 525, (S)-1-(2-(3-Acetyl-5-(pyridin-3-yl)-1H-indazol-1-yl)acetyl)-N-(6-methylpyridin-2-yl)pyrrolidine-2-carboxamide], which IC50 is on record?
The IC50 was 1 to 10 µM.

For `CC(=O)c1nn(CC(=O)N2CCC[C@H]2C(=O)Nc2cccc(C)n2)c2ccc(-c3ccc(C)nc3)cc12` [Compound 586, (S)-1-(2-(3-Acetyl-5-(6-methylpyridin-3-yl)-1H-indazol-1-yl)acetyl)-N-(6-methylpyridin-2-yl)pyrrolidine-2-carboxamide], which IC50 is on record?
Its IC50 is 1 to 10 µM.

Same assay, conditions: Human Factor D 80 nM, substrate Z-L-Lys-SBzl; read-out: IC50

Which IC50 does the source give for `CC(=O)c1nn(CC(=O)N2C[C@H](F)C[C@H]2C(=O)Nc2cccc(Br)n2)c2ccc(-c3cnc(C)nc3)cc12` [Compound 165, (2S,4R)-1-(2-(3-acetyl-5-(2-methylpyrimidin-5-yl)-1H-indazol-1-yl)acetyl)-N-(6-bromopyridin-2-yl)-4-fluoropyrrolidine-2-carboxamide] here?
Its IC50 is less than 1 µM.

For `Cc1c([C@@H](C)NC(=O)[C@@H]2C[C@@H](F)CN2C(=O)Cn2nc(C(N)=O)c3cc(-c4ccnnc4)ccc32)oc2ccc(F)cc12` [Compound 183, 1-(2-((2S,4R)-4-fluoro-2-((R)-1-(5-fluoro-3-methylbenzofuran-2-yl)ethylcarbamoyl)pyrrolidin-1-yl)-2-oxoethyl)-5-(pyridazin-4-yl)-1H-indazole-3-carboxamide], which IC50 is on record?
The IC50 was greater than 10 µM.

Same assay, conditions: Human Factor D assay of Example 8; Table 2; read-out: IC50

For `CC(=O)c1nn(CC(=O)N2C[C@@H](F)C[C@H]2C(=O)Nc2cccc(Br)n2)c2ccc(-c3cnc(C)nc3)cc12` [Compound 253, (2S,4S)-1-(2-(3-acetyl-5-(2-methylpyrimidin-5-yl)-1H-indazol-1-yl)acetyl)-N-(6-bromopyridin-2-yl)-4-fluoropyrrolidine-2-carboxamide], which IC50 is on record?
Its IC50 is less than 1 µM.

Same assay, conditions: Human Factor D, Table 3; read-out: IC50

Which IC50 does the source give for `CC(=O)c1nn(CC(=O)N2C[C@H](F)C[C@H]2C(=O)N[C@@H](C)C(F)=C(C)C)c2ccc(-c3cnc(C)nc3)cc12` [Compound 614, (2S,4R)-1-(2-(3-Acetyl-5-(2-methylpyrimidin-5-yl)-1H-indazol-1-yl)acetyl)-4-fluoro-N—((S)-3-fluoro-4-methylpent-3-en-2-yl)pyrrolidine-2-carboxamide] here?
The IC50 was less than 1 µM.

Same assay, conditions: Table 3; Human Factor D 80 nM, substrate Z-L-Lys-SBzl; read-out: IC50 (Stars)

For `CC(=O)c1nn([C@@H](F)C(=O)N2C[C@H](F)C[C@H]2C(=O)Nc2cccc(Br)n2)c2ccc(-c3cnc(C)nc3)cc12` [Compound 412, (2S,4R)-1-((S)-2-(3-acetyl-5-(2-methylpyrimidin-5-yl)-1H-indazol-1-yl)-2-fluoroacetyl)-N-(6-bromopyridin-2-yl)-4-fluoropyrrolidine-2-carboxamide], which IC50 is on record?
Its IC50 is less than 1 µM.

With `CC(=O)c1nn(CC(=O)N2C[C@H](F)C[C@@H]2C(=O)Nc2cccc(Br)n2)c2ccc(-c3cnc(C)nc3)cc12` [Compound 517, (2R,4R)-1-(2-(3-acetyl-5-(2-methylpyrimidin-5-yl)-1H-indazol-1-yl)acetyl)-N-(6-bromopyridin-2-yl)-4-fluoropyrrolidine-2-carboxamide] as the molecule, how does the IC50 read?
The IC50 was greater than 10 µM.
